The compounds below were run on Mus musculus (assay: Anti-nociceptive activity (Analgesia reversed by 3 mg/kg of naloxone) after administration through the subcutaneous route to female mice.).
With CN(C(=O)Cc1ccc(Cl)c(Cl)c1)C(C)(C)CN1CCCC1 the ED50 was greater than 10 mg/kg. C[C@@H]([C@H](C)N(C)C(=O)Cc1ccc(Cl)c(Cl)c1)N1CCCC1 showed an ED50 of 4.4 mg/kg. In the case of C[C@@H](CN1CCCC1)N(C)C(=O)Cc1ccc(Cl)c(Cl)c1, the ED50 is reported as 0.67 mg/kg. With CN(C(=O)Cc1ccc(Cl)c(Cl)c1)[C@H](CN1CCCC1)C(C)(C)C the ED50 was 0.03 mg/kg. C[C@@H](CN(C)C(=O)Cc1ccc(Cl)c(Cl)c1)N1CCCC1 was tested, and the ED50 was greater than 10 mg/kg. Compound CC(C)[C@@H](CN1CCCC1)N(C)C(=O)Cc1ccc(Cl)c(Cl)c1 has an ED50 of 0.05 mg/kg.
